Patent publication US8058242B2, “Chimeric proteins with natriuretic activity” (The University of Queensland, priority 2004, dated 2011)

Molecular target: T1, Natriuretic Peptide Receptor-A (NPR-A) signaling in MDCK cells (Canis lupus familiaris, UniProt A0A8I3MHU3)
T1 sequence (A0A8I3MHU3 32-1060): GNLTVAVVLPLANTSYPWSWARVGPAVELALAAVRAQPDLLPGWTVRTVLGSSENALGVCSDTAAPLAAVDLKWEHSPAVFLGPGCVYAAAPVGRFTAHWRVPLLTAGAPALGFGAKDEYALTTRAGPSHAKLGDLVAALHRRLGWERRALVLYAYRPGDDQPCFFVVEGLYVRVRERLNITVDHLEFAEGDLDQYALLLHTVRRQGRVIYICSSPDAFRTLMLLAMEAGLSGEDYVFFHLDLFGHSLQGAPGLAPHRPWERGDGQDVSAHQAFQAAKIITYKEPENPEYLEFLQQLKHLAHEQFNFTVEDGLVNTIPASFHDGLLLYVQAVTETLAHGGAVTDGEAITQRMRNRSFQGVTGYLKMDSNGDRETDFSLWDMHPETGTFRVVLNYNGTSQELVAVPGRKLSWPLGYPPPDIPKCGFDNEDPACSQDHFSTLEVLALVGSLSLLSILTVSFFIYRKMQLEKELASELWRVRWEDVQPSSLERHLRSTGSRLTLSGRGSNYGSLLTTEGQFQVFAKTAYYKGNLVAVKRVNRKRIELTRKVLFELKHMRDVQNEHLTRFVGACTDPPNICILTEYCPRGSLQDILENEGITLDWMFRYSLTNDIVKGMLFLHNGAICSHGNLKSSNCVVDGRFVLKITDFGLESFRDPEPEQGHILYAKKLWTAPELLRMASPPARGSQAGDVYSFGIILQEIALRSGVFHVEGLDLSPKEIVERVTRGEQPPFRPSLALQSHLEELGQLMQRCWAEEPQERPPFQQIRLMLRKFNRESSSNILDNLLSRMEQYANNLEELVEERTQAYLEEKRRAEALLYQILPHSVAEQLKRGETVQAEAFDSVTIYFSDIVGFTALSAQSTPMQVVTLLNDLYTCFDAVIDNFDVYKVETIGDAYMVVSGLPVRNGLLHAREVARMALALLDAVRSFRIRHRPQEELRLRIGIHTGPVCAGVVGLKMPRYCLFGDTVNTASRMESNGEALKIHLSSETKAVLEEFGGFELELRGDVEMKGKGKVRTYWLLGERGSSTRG
Format: cell-based, canine
Conditions: stimulation of cGMP accumulation in MDCK cells

Question: What does the source list for `CC[C@H](C)[C@@H]1NC(=O)[C@H](CCCNC(=N)N)NC(=O)[C@H](CC(=O)O)NC(=O)[C@H]([C@@H](C)CC)NC(=O)[C@H](CCCNC(=N)N)NC(=O)CNC(=O)CNC(=O)[C@H](Cc2ccccc2)NC(=O)[C@@H](NC(=O)[C@H](CO)NC(=O)[C@H](CO)NC(=O)[C@H](CCCNC(=N)N)NC(=O)[C@H](CCCNC(=N)N)NC(=O)[C@H](CC(C)C)NC(=O)[C@@H](N)CO)CSSC[C@@H](C(=O)N[C@@H](CC(N)=O)C(=O)N[C@@H](CO)C(=O)N[C@@H](Cc2ccccc2)C(=O)N[C@@H](CCCNC(=N)N)C(=O)N[C@@H](Cc2ccc(O)cc2)C(=O)O)NC(=O)CNC(=O)[C@H](CC(C)C)NC(=O)CNC(=O)[C@H](CO)NC(=O)[C@H](CCC(N)=O)NC(=O)[C@H](C)NC(=O)CNC1=O` [rANP, reference compound]?
Answer: −Log10 EC50 (pEC50) ± Standard Error: 8.761 ± 0.2936; EC50 (read-out: EC50 (M) ± Standard Error): 8.47e-09 M
